Laboratory results published in patent publication US11180487B2, “Substituted cyanoindoline derivatives as NIK inhibitors” (Janssen Pharmaceutica NV, priority 2016, dated 2021).

Amino acid sequences for entries named in this document (tags omitted).
UniProt Q99558, whole entry: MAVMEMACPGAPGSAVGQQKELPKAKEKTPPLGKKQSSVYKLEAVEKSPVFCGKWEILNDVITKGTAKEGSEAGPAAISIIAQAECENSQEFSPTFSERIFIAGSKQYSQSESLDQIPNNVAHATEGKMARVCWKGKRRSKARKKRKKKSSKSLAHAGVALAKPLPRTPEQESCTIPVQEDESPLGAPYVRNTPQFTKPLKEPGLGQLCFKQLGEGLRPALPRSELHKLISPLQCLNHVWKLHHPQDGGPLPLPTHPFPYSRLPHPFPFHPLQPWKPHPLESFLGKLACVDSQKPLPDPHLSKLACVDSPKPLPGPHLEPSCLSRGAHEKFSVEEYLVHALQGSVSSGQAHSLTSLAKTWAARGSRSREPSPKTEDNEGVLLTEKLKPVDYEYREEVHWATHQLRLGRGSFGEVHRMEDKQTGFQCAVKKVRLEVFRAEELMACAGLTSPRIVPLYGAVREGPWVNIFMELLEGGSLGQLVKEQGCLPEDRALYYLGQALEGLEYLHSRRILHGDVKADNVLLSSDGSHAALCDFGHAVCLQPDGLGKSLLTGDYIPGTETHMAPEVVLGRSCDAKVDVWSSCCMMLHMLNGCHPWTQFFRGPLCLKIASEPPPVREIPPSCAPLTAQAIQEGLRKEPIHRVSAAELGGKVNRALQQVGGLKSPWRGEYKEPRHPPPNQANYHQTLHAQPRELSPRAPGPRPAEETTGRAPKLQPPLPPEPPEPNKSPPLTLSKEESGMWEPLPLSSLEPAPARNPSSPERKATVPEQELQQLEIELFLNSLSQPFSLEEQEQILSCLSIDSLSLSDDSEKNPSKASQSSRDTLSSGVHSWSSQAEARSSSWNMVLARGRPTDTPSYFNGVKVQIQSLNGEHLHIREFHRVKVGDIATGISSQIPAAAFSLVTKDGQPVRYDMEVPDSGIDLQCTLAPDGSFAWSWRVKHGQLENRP

Target: recombinant human NF-kappaB-inducing kinase (NIK/MAP3K14) (Homo sapiens, UniProt Q99558)
Experiment: Inhibition of auto-phosphorylation of recombinant human NIK/MAP3K14 activity (AlphaScreen), Biological Assay A
Details: read-out: Auto-phosphorylation inhibition of NIK (IC50 (nM)), averaged values over all measurements on all batches
Method: Inhibition of Auto-Phosphorylation of Recombinant Human NF-kappaB-Inducing Kinase (NIK/MAP3K14) Activity (AlphaScreen®)
NIK/MAP3K14 auto-phosphorylation activity was measured using the AlphaScreen® (αscreen) format (Perkin Elmer). All compounds tested were dissolved in dimethyl sulfoxide (DMSO) and further dilutions were made in assay buffer. Final DMSO concentration was 1% (v/v) in assays. Assay buffer was 50 mM Tris pH 7.5 containing 1 mM EGTA (ethylene glycol tetraacetic acid), 1 mM DTT (dithiothreitol), 0.1 mM Na3VO4, 5 mM MgCl2, 0.01% Tween® 20. Assays were carried out in 384 well Alphaplates (Perkin Elmer). Incubations consisted of compound, 25 microM Adenosine-5′-triphosphate (ATP), and 0.2 nM NIK/MAP3K14. Incubations were initiated by addition of GST-tagged NIK/MAP3K14 enzyme, carried out for 1 h at 25° C. and terminated by addition of stop buffer containing anti-phospho-IKK Ser176/180 antibody. Protein A Acceptor and Glutathione-Donor beads were added before reading using an EnVision® Multilabel Plate Reader (Perkin Elmer). Signal obtained in the wells containing blank samples was subtracted from all other wells and IC50's were determined by fitting a sigmoidal curve to % inhibition of control versus Log10 compound concentration.

## CNC(=O)c1ccc(OC2CC2)c(Nc2nccc(-c3cc(C#N)c4c(c3)[C@@](C)(CO)CN4)n2)c1
  IC50: 4.6 nM
